# From paper PMC6842095 (Neuropharmacology, 2019)
# Chains of the proteins cited; added tags and fusions are not shown. Residues count along the entry.
# UniProt P43681, 29-627 K186G/Y218R/T220E/K222F/I229P: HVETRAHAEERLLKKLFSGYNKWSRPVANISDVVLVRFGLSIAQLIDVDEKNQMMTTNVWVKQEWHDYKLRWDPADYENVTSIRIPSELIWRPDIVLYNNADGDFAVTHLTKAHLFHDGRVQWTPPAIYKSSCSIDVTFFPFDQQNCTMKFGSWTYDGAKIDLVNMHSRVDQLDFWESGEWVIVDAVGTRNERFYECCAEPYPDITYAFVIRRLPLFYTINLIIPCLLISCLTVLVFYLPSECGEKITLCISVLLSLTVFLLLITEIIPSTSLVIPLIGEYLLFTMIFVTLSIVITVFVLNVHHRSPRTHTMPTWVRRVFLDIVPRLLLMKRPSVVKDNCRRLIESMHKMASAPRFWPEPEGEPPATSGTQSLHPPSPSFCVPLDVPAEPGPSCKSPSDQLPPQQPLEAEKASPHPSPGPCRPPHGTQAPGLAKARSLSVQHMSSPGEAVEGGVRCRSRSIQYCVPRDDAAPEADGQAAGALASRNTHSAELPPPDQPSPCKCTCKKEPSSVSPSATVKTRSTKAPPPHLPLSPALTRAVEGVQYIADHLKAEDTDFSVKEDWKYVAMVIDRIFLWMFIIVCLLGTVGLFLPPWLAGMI
# Biological target: α4 GREFP β2 AChR (Homo sapiens, UniProt P17787+P43681, I229P/K186G/K222F/T220E/Y218R)
# Format: binding
smiles,measurement,value
"CO[C@H]1CC=C2CCN3CCC4=C(CC(=O)OC4)[C@]23C1 [DHβE, dihydro-β-erythroidine]",nH (Hill coefficient),1.4 ± 0.1
